As a reminder, the Kd is the free concentration of one partner at which half of the binding sites on the other are occupied at equilibrium, for simple one-to-one binding.

The values below come from US8906832B2, “Quantitative analysis of carbohydrate-protein interactions using glycan microarrays: determination of surface and solution dissociation constants” (Academia Sinica, priority 2008, dated 2014).

For the test, the target named is T1, Con A (Canavalia ensiformis, UniProt P02866).
T1 construct: purchased Sigma
As to the kind of experiment: Competitive binding assay on glycan microarray (solution KD / Ki). The settings on record: competition of free oligomannose with the corresponding oligomannose surface.

The substance Man9 gave a Kd of 0.13 µM.
